How the values were obtained:
BET bromodomains = settings: background statement on known BET inhibitors; cited from earlier work
[1] = test system: T1, individual first and second bromodomains of BRD2, BRD3 and BRD4; assay: ITC of MZ1, summary over all six bromodomains; assay type: binding; settings: range over first and second bromodomains of BRD2, BRD3 and BRD4
T1 construct: rows headed: ΔH; other: ITC, range over first and second bromodomains of BRD2, BRD3 and BRD4; fused on or other part: His6 tag
Description: (§1) Experiments were conducted as PROTAC into protein titrations, except in the case of MZ3 where protein was titrated into PROTAC. BET protein experiments were conducted in a buffer containing 20 mM HEPES with 100 mM NaCl at pH 7.5 and a temperature of 30° C.

BRD3 = target: T2, BRD3 (Homo sapiens, UniProt Q15059); assay: BET protein abundance in HeLa cells by Western blot; assay type: cell-based; settings: 1 μM, 24 h
T2 construct: endogenous in cells; host or cells: HeLa

BRD4 = target: T3, BRD4 (Homo sapiens, UniProt O60885); assay: as above; assay type: cell-based
T3 construct: endogenous in cells; host or cells: HeLa
Description: 4 h after treatment the media was aspirated and replaced by fresh media without treatment. Cells were harvested at given time points.

GFP-BRD4 = GFP-BRD4 (Homo sapiens, UniProt O60885); settings: U2OS cells expressing GFP-BRD4, 5 μM
BRD2/BD2 = BRD2/BD2 (Homo sapiens, UniProt P25440); settings: ITC, 30° C.
Description: (§2) Samples were monitored by SDS-polyacrylamide gel electrophoresis to verify purity.
as §1

BRD4/BD2 = BRD4/BD2 (Homo sapiens, UniProt O60885); settings: ITC, 30° C.
Description: as §2, §1

BRD2/BD1 = BRD2/BD1 (Homo sapiens, UniProt P25440); settings: ITC, 30° C.
Description: as §2, §1

BRD3/BD2 = BRD3/BD2 (Homo sapiens, UniProt Q15059); settings: ITC, 30° C.
Description: as §2, §1

BRD3/BD1 = BRD3/BD1 (Homo sapiens, UniProt Q15059); settings: ITC, 30° C.
Description: as §2, §1

BRD4/BD1 = BRD4/BD1 (Homo sapiens, UniProt O60885); settings: ITC, 30° C.
Description: as §2, §1

BRD2 = target: T4, BRD2 (Homo sapiens, UniProt P25440); assay: BET protein abundance in HeLa cells by Western blot; assay type: cell-based; settings: 1 μM, 24 h
T4 construct: endogenous in cells; host or cells: HeLa

[2] = test system: BET proteins (BRD2, BRD3, BRD4); assay: BET protein removal in HeLa cells by Western blot (all BET proteins); settings: various concentrations

## CCNC(=O)C[C@@H]1N=C(c2ccc(Cl)cc2)c2cc(OC)ccc2-n2c(C)nnc21 [I-BET762]
BET bromodomains
  Kd: ~100 nM

## Cc1ncsc1-c1ccc(CNC(=O)[C@@H]2C[C@@H](O)CN2C(=O)[C@@H](NC(=O)COCCOCCOCCNC(=O)C[C@@H]2N=C(c3ccc(Cl)cc3)c3c(sc(C)c3C)-n3c(C)nnc32)C(C)(C)C)cc1 [MZ1, (2S,4R)-1-((S)-2-(tert-butyl)-17-((S)-4-(4-chlorophenyl)-2,3,9-trimethyl-6H-thieno[3,2-f][1,2,4]triazolo[4,3-a][1,4]diazepin-6-yl)-4,16-dioxo-6,9,12-trioxa-3,15-diazaheptadecanoyl)-4-hydroxy-N-(4-(4-methylthiazol-5-yl)benzyl)pyrrolidine-2-carboxamide]
[1]
  ΔH: −6.1 to −10.0 kcal/mol
BRD3
  removal of BRD3 (Western blot): not complete
BRD4; 1 μM for 4 h, then compound removed from the media
  detectable recovery of intracellular BRD4 after washout: 20 h
BRD4; 1 μM, 24 h
  removal of BRD4 (Western blot): complete removal
BRD4; 1 μM, no exchange of media, after 48 h
  BRD4 protein level in the absence of the wash step: no protein could be detected
GFP-BRD4
  complete depletion of the GFP-BRD4 fluorescence signal observed after: 3 h
BRD2/BD2
  ΔG: -9.22 ± 0.05 kcal/mol
  ΔH: -6.08 ± 0.04 kcal/mol
  ΔS: 10.3 ± 0.2 cal/mol-K
BRD4/BD2
  ΔG: -9.61 ± 0.04 kcal/mol
  ΔH: -6.86 ± 0.03 kcal/mol
  ΔS: 9.04 ± 0.16 cal/mol-K
BRD2/BD1
  ΔH: -10.0 ± 0.1 kcal/mol
  ΔS: −4.29 ± 0.38 cal/mol-K
BRD3/BD2
  ΔG: -9.63 ± 0.06 kcal/mol
  ΔH: -8.32 ± 0.05 kcal/mol
  ΔS: −4.29 ± 0.26 cal/mol-K
BRD3/BD1
  ΔG: -9.62 ± 0.02 kcal/mol
  ΔH: -10.0 ± 0.06 kcal/mol
  ΔS: −4.40 ± 0.20 cal/mol-K
BRD4/BD1
  ΔG: -8.91 ± 0.02 kcal/mol
  ΔH: -8.59 ± 0.03 kcal/mol
  ΔS: 1.04 ± 0.13 cal/mol-K
BRD2
  removal of BRD2 (Western blot): not complete
[2]
  concentration dependent BET removal activity: most active compound

## Cc1ncsc1-c1ccc(CNC(=O)[C@@H]2C[C@H](O)CN2C(=O)[C@@H](NC(=O)COCCOCCOCCNC(=O)C[C@@H]2N=C(c3ccc(Cl)cc3)c3c(sc(C)c3C)-n3c(C)nnc32)C(C)(C)C)cc1 [cisMZ1, (2S,4S)-1-((S)-2-(tert-butyl)-17-((S)-4-(4-chlorophenyl)-2,3,9-trimethyl-6H-thieno[3,2-f][1,2,4]triazolo[4,3-a][1,4]diazepin-6-yl)-4,16-dioxo-6,9,12-trioxa-3,15-diazaheptadecanoyl)-4-hydroxy-N-(4-(4-methylthiazol-5-yl)benzyl)pyrrolidine-2-carboxamide]
GFP-BRD4
  change in the GFP-BRD4 fluorescence signal over the course of the experiment: no change

— US11179373B2, “Derivatives of 1-[(cyclopentyl or 2-pyrrolidinyl)carbonylaminomethyl]-4-(l,3-thiazol-5-yl) benzene which are useful for the treatment of proliferative, autoimmune or inflammatory diseases” (University of Dundee, priority 2015, dated 2021)
